{"source": "patent US20250289861A1", "about": "(IMMUNOFORGE, published 2025)", "biological_target": "GLP1R on CHO-K1 GLP1R cells (cAMP Hunter Liraglutide bioassay kit)", "experiment": "cell-based or functional assay", "note": "Values joined by “and” are separate entries in the source; they are usually repeats but may differ in a detail not shown here. Equal entries are not always repeated."}
{"substance": "Exendin-4 (positive control) (from UniProt P26349) (peptide)", "values": [{"measurement": "EC50 (pM), cAMP assay on CHO-K1 GLP1R cells (cAMP Hunter Liraglutide bioassay kit)", "result": "5 pM and 8 pM"}]}
